By EC50 is commonly meant the concentration needed to bring the measured effect to its halfway point. A word on the Ki: it is the dissociation constant of the complex between target and ligand, obtained from inhibition or displacement.

Protein sequences, listed by entry. Tags and fused reporters are not part of them. Residues count along the entry.
UniProt Q13490, whole entry: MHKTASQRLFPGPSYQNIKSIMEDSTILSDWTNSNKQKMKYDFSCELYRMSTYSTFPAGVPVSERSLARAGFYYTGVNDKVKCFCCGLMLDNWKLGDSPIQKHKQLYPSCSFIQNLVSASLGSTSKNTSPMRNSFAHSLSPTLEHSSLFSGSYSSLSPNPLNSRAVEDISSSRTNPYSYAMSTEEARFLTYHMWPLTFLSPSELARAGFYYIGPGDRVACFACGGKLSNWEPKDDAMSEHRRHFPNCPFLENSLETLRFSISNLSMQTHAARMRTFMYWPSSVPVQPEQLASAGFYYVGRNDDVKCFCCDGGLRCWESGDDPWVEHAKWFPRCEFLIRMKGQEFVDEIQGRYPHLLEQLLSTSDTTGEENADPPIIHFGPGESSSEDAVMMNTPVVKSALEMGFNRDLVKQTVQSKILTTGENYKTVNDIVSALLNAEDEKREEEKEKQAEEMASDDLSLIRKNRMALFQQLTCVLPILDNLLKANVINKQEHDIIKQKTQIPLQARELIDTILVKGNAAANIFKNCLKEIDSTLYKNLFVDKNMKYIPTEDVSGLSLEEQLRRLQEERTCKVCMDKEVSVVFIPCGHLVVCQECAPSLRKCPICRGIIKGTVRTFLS
UniProt Q13490, 253-363 limits assumed: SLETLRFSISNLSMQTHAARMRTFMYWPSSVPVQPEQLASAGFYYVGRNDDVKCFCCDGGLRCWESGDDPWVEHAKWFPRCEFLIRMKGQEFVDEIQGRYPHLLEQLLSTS
UniProt Q13489, whole entry: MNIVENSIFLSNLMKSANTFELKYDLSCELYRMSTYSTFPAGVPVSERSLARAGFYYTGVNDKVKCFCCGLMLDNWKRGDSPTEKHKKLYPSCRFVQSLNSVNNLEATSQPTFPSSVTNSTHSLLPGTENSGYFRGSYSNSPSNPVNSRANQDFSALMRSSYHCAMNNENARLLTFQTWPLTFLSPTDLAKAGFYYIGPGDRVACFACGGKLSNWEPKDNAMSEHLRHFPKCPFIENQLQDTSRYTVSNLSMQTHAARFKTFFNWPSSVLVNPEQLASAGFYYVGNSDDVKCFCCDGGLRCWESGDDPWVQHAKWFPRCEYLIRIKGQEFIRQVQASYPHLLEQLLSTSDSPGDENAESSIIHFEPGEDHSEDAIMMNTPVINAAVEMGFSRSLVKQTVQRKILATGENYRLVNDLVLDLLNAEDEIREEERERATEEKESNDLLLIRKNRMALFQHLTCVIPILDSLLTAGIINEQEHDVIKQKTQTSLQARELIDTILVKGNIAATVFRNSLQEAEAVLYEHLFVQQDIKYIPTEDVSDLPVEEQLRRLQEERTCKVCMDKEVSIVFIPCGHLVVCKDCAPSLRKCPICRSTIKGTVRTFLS

SMILES strings stand for the structures. Like-named read-outs stand apart in the source and are kept apart here.

For 2 compounds, EC50 and Ki results are on record in patent US20140303090A1, “Smac Mimetic Therapy” (TETRALOGIC PHARMACEUTICALS CORPORATION, priority 2013, published 2014).

For one assay, the target named is GFP-cIAP1 (Homo sapiens, UniProt Q13490). Kind of assay: GFP-cIAP1 degradation assay (loss of GFP signal, flow cytometry). It counts as cell-based.
Another assay deals with GFP-cIAP2 (Homo sapiens, UniProt Q13489). Kind of assay: GFP-cIAP2 degradation assay (loss of GFP signal, flow cytometry). The assay is classed as cell-based. As for the experimental part: In this assay, treatment of GFP-cIAP-expressing melanoma cell line A375 with Smac mimetic, Compound 15, for two hours, results in degradation of cIAP-1 and cIAP-2 with concomitant loss of GFP-signal. (FIG. 1) The EC50's for GFP-tagged cIAP-1 and GFP-tagged cIAP-2 proteins were 17±11 nM and 108±46 nM, respectively.
Background: Flow cytometry measures light scatter and fluorescence of single cells or particles in a stream.

The subject of the next assay is TNF-mediated NF-κB-luc. The following applies: read-out: Inhibition of TNF-mediated NF-κB-luc @ 2 h, EC50.
Another assay deals with cIAP1 BIR3 (Homo sapiens, UniProt Q13490). Kind of assay: Fluorescence polarization displacement assay, cIAP1 BIR3. As to conditions: read-out: cIAP1 BIR3, Ki. For orientation: Fluorescence polarisation rises when a labelled molecule tumbles more slowly, as on binding a larger partner.
[1] abbreviates: read-out: ΔGFP-cIAP1 EC50, 2 h, 2 h, A375 cells.
Where [2] appears, read: read-out: ΔGFP-cIAP1 EC50, 24 h, 24 h.
Where [3] appears, read: read-out: ΔGFP-cIAP2 EC50, 2 h, 2 h, A375 cells.
The mark [4] stands for this setting: read-out: ΔGFP-cIAP2 EC50, 24 h, 24 h.

In the case of `CN[C@@H](C)C(=O)NCC(=O)N1C[C@@H](O)C[C@H]1Cc1c(-c2[nH]c3cc(F)ccc3c2C[C@@H]2C[C@H](O)CN2C(=O)CNC(=O)[C@H](C)NC)[nH]c2cc(F)ccc12`, the EC50 is 2580 nM on GFP-cIAP1 (setting [1]); 847 nM on GFP-cIAP1 (setting [2]); 4600 nM on GFP-cIAP2 (setting [3]); 5300 nM at GFP-cIAP2 (setting [4]); 707 nM in the assay with TNF-mediated NF-κB-luc. In addition, the Ki at cIAP1 BIR3 was 65 nM.

Take `CN[C@@H](C)C(=O)N[C@@H](C)C(=O)N1C[C@@H](O)C[C@H]1Cc1c(-c2[nH]c3cc(F)ccc3c2C[C@@H]2C[C@H](O)CN2C(=O)[C@H](C)NC(=O)[C@H](C)NC)[nH]c2cc(F)ccc12`: the EC50 was 463 nM on GFP-cIAP1 (setting [1]); 65 nM at GFP-cIAP1 (setting [2]); 3130 nM at GFP-cIAP2 (setting [3]); 3880 nM at GFP-cIAP2 (setting [4]); 584 nM in the assay with TNF-mediated NF-κB-luc. Moreover, the Ki on cIAP1 BIR3 came to 92 nM.
